Assay results from patent US20220204624A1 (published 2022).

How the values were obtained:
Experiment in all cases: Octet
1C11_H3.35_L3 = target: 1C11_H3.35_L3
1C11_H3.5_L3 = target: 1C11_H3.5_L3
1C11_H3.18_L3 = target: 1C11_H3.18_L3
1C11_H3.42_L3 = target: 1C11_H3.42_L3
1C11_H3.146_L3 = target: 1C11_H3.146_L3
1C11_H3.129_L3 = target: 1C11_H3.129_L3
1C11_H3.25_L3 = target: 1C11_H3.25_L3
[1] = target: 1C11_H3.229_L3 (XENP25326)
[2] = target: 1C11_H3.230_L3 (XENP25327)
[3] = target: 1C11_H3.231_L3 (XENP25328)
[4] = target: 1C11_H3.188_L3.148 (XENP25335)
[5] = target: 1C11_H3.226_L3.144 (XENP25338)
[6] = target: 1C11_H3.188_L3.144 (XENP25334)
[7] = target: 1C11_H3_L3.141 (XENP25341)
[8] = target: 1C11_H3.188_L3 (XENP25340)
[9] = target: 1C11_H3.224_L3.144 (XENP25336)
[10] = target: 1C11_H3.226_L3.148 (XENP25339)
[11] = target: 1C11_H3.224_L3.148 (XENP25337)

B1: PD-1 (receptor)
chain: LDSPDRPWNPPTFSPALLVVTEGDNATFTCSFSNTSESFVLNWYRMSPSNQTDKLAAFPEDRSQPGQDCRFRVTQLPNGRDFHMSVVRARRNDSGTYLCGAISLAPKAQIKESLRAELRVTERRAEVPTAHPSPSPRPAGQFQ
Kd (1C11_H3.35_L3): 69.2 nM
Kd (1C11_H3.5_L3): 19.1 nM
Kd (1C11_H3.18_L3): 15.6 nM
Kd (1C11_H3.42_L3): 27.8 nM
Kd (1C11_H3.146_L3): 23 nM
Kd (1C11_H3.129_L3): 23.7 nM
Kd (1C11_H3.25_L3): 34 nM
Kd [1]: 37.9 nM
Kd [2]: 41.9 nM
Kd [3]: 30.1 nM
Kd [4]: 41.3 nM
Kd [5]: 43.7 nM
Kd [6]: 50.4 nM
Kd [7]: 33.7 nM
Kd [8]: 53.2 nM
Kd [9]: 33.1 nM
Kd [10]: 41.8 nM
Kd [11]: 31.2 nM
